Test results published in patent US10953011B2, “Methods of treating virally associated cancers with histone deacetylase inhibitors” (priority 2019, dated 2021).

Molecular target: T1, HDAC8 (Homo sapiens, UniProt Q9BY41)
T1 sequence (Q9BY41 1-377): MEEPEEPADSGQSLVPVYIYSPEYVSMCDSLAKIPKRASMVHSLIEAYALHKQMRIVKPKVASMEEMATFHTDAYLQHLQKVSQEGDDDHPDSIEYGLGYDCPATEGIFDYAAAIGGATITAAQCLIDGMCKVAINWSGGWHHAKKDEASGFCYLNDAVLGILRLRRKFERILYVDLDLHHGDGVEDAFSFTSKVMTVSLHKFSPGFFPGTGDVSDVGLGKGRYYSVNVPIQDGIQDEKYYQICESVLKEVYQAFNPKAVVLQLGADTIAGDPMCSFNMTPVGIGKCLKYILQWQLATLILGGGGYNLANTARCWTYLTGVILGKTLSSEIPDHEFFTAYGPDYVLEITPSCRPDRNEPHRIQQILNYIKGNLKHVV
Experiment: biochemical

Compound `O=C(CCCCCCC(=O)Nc1ccccc1)NO` [SAHA, suberanilohydroxamic acid] has an IC50 of ~46 µM.
